Active and inactive are the calls of the source. The calls are words filed in the database; no cut-off is given here.
What was measured:
[1] = biological target: Kappa-type opioid receptor (Mus musculus) (UniProt P33534); test: Displacement of [125I]dynorphin from kappa opioid receptor in BALB/c mouse brain membrane at 5 uM by liquid scintillation counting relative to control; assay type: cell membranes
[2] = biological target: Kappa-type opioid receptor (Rattus norvegicus) (UniProt P34975); test: Agonist activity at kappa opioid receptor in rat C6 cells assessed as induction of ERK1/2 phosphorylation at 1 uM after 10 min by Western blot analysis

Sequences of proteins named here, by UniProt entry; tags and fusion partners are left off. A change or cut given only in a name is not applied to a line headed by its entry.
UniProt P33534: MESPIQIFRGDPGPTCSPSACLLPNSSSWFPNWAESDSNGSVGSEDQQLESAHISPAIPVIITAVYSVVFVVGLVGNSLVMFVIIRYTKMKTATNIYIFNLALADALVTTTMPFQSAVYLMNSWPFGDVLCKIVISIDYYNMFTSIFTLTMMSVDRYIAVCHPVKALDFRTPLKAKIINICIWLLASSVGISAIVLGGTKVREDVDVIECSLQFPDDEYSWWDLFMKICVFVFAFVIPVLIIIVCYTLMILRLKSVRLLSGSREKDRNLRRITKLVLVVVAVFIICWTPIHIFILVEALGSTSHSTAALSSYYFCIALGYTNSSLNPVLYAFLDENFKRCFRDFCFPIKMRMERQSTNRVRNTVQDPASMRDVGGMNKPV
UniProt P34975: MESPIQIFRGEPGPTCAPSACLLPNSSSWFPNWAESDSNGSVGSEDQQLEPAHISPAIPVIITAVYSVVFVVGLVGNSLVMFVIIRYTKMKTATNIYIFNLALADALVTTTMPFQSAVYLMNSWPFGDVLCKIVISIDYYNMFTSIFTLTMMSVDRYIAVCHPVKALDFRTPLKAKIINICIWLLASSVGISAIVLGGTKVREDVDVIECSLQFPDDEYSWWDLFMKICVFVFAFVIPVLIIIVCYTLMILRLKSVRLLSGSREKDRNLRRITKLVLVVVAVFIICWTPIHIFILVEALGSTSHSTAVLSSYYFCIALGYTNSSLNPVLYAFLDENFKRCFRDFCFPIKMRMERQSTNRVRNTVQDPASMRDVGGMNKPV

Question: Which inhibition [1] does the source give for CN(C(=O)Cc1ccc(Cl)c(Cl)c1)C1CCCCC1N1CCCC1 (configuration not stated) here?
Answer: The inhibition was 50%.

Question: And the Activity [2]?
Answer: Its Activity is “Active”.
